Earlier results on 1 substance are cited in US20060150828A1, “Dried infant cereal compositions” (Beech-Nut Nutrition Corporation, priority 2005, published 2006).

The conditions of the data set: storage at 37° C., precooked whole wheat flour containing the iron salt.

Turning to Ferric pyrophosphate, the “pentane formation (fat oxidation)” value is reported as “generated far less pentane”.
